Data: patent publication US20190046600A1, “COMPOSITIONS AND USES THEREOF” (priority 2016, published 2019)

Biological target: T1, recombinant human caspase 3 (Homo sapiens, UniProt P42574)
T1 construct: purchased Enzo Life Sciences BML-SE169-5000
T1 sequence (P42574 29-175 limits assumed): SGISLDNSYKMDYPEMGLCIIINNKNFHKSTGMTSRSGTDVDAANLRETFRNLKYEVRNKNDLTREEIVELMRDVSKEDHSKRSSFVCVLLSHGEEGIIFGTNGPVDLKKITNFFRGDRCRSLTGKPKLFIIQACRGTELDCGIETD
T1 sequence (P42574 176-277 limits assumed): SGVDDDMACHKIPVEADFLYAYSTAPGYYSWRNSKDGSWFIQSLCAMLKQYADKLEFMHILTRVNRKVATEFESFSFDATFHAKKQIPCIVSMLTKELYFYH
Assay: Apo-ONE Homogeneous Caspase-3/7 assay with recombinant caspase-3
Type: biochemical
Details: 0.1 or 0.3 U enzyme

Substance: Ac-DEVD-CHO
- caspase-3 activity: inhibited the activity of caspase-3 in a dose-dependent manner
- caspase-3 activity (listed as DEVD-CHO): inhibited the caspase-3 activity in a dose-dependent fashion
